Assay results published in ChEMBL document CHEMBL1153085, “Spare interactions of highly potent [Arg(14),Lys(15)]nociceptin for cooperative induction of ORL1 receptor activation” (Bioorg Med Chem, 2009).

Chains of the proteins cited; added tags and fusions are not shown.
UniProt P35370, whole entry Y207A: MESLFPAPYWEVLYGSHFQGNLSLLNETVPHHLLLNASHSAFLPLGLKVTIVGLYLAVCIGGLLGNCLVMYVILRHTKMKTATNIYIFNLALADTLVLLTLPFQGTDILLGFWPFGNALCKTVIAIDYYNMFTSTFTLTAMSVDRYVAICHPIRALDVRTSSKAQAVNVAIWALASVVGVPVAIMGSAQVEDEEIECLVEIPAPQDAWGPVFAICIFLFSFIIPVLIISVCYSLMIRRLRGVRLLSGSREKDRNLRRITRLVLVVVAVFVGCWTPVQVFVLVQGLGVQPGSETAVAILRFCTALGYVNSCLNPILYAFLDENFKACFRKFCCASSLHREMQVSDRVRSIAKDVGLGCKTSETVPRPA
UniProt P35370, whole entry D206A: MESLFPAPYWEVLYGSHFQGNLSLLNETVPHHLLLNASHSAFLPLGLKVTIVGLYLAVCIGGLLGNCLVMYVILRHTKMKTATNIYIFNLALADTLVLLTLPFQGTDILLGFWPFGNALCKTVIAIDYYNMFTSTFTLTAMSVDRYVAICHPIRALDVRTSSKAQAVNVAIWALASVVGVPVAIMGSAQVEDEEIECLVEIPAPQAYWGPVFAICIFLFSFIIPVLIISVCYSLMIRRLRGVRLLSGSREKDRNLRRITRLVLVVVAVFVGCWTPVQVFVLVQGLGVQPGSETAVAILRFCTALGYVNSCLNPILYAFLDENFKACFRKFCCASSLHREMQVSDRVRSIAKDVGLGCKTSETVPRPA

How the values were obtained:
[1] = target: Nociceptin receptor (Rattus norvegicus, UniProt P35370, Y207A); test: biochemical
[2] = target: Nociceptin receptor (Rattus norvegicus, UniProt P35370, D206A); test: biochemical

Work on `CC(C)C[C@H](NC(=O)[C@H](CCCCN)NC(=O)[C@H](CCCN=C(N)N)NC(=O)[C@H](C)NC(=O)[C@H](CO)NC(=O)[C@H](CCCCN)NC(=O)[C@H](CCCN=C(N)N)NC(=O)[C@H](C)NC(=O)CNC(=O)[C@@H](NC(=O)[C@H](Cc1ccccc1)NC(=O)CNC(=O)CNC(=O)[C@@H](N)Cc1ccccc1)[C@@H](C)O)C(=O)N[C@@H](C)C(=O)N[C@@H](CC(N)=O)C(=O)N[C@@H](CCC(N)=O)C(=O)O` (stereo in doubt; form 1) [NOCICEPTIN] yielded an IC50 [1] of 0.91 nM and an IC50 [2] of 1.02 nM.
Molecule `CC(C)C[C@H](NC(=O)[C@H](CCCCN)NC(=O)[C@H](CCCN=C(N)N)NC(=O)[C@H](C)NC(=O)[C@H](CO)NC(=O)[C@H](CCCCN)NC(=O)[C@H](CCCN=C(N)N)NC(=O)[C@H](C)NC(=O)CNC(=O)[C@@H](NC(=O)[C@H](Cc1ccccc1)NC(=O)CNC(=O)CNC(=O)[C@@H](N)Cc1ccccc1)[C@@H](C)O)C(=O)N[C@@H](C)C(=O)N[C@@H](CC(N)=O)C(=O)N[C@@H](CCC(N)=O)C(=O)O` (stereo in doubt; form 2) [NOCICEPTIN] has an IC50 [1] of 0.46 nM and an IC50 [2] of 0.54 nM.
